Target: sigma-1 receptor (Homo sapiens, UniProt Q99720)
Assay: sigma 1 binding assay
Details: ratio of sigma-1 K i to H3R K i

Protein sequences, listed by entry. Tags and fused reporters are not part of them.
UniProt Q99720, whole entry, species assumed: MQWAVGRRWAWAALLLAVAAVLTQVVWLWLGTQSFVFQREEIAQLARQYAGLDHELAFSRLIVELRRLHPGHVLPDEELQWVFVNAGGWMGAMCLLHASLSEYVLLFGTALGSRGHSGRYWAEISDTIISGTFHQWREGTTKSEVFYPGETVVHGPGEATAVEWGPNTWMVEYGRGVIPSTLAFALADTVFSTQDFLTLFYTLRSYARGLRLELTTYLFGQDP

SMILES: O=C([C@H]1C[C@@H]1c1ccc(F)cc1)N1CCN(C2CCC2)CC1 [Compound 2, (4-Cyclobutylpiperazin-1-yl)((1S,2S)-2-(4-fluorophenyl)cyclopropyl)methanone]
- selectivity of H3R over sigma-1: 0.65 fold

From PMC12362585, “Development and Preclinical Characterization of [^18F]H3-2406 and [^18F]H3-2407 for Positron Emission Tomography Imaging of the Histamine Subtype‑3 Receptor” (Journal of Medicinal Chemistry, 2025)
